Assay results: US11655216B2 (priority 2016, dated 2023)

Protein sequences, listed by entry. Tags and fused reporters are not part of them. Residues count along the entry.
UniProt Q13133, 209-447 limits assumed: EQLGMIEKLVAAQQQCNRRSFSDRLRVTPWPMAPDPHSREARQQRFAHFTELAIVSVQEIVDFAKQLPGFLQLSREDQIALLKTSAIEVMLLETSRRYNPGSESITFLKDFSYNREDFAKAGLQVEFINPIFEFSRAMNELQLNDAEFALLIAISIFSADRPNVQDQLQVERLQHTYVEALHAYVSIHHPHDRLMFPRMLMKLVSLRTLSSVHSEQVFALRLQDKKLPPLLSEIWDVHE
UniProt P55055, 222-460 limits assumed: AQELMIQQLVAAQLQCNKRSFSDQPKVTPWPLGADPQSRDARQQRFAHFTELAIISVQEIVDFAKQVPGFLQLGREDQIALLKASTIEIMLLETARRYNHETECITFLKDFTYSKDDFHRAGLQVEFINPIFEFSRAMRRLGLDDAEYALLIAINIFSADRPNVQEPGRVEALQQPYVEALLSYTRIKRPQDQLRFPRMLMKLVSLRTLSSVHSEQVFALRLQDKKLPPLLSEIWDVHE

Assays:
[1] = target: glutathione-S-transferase (GST) tagged LXRalpha LBD (ligand binding domain) (Homo sapiens, UniProt Q13133)
[2] = target: glutathione-S-transferase (GST) tagged LXRbeta LBD (ligand binding domain) (Homo sapiens, UniProt P55055); assay: LanthaScreen TR-FRET Liver X Receptor Coactivator Assay, LXR beta; assay type: biochemical
[3] = efficacy (% Emax) in relation to reference dual agonist T0901317

**Q.** What does the source list for `CN(C)C(=O)c1ccc(OCCCCC2CCN(C(=O)C3(c4ccccc4)CCCO3)CC2)cc1Cl` (single isomer, unassigned) [Example 3-5, (S or R)-2-chloro-N,N-dimethyl-4-(4-(1-(2-phenyl-tetrahydrofuran-2-carbonyl)piperidin-4-yl)butoxy)benzamide]?
**A.** LXR alpha actiivty at max dose [1, 3]: 17%; EC50 ([1]; read-out: LXR alpha IP, potency (Inflection Point), compound-induced co-activator recruitment, TR-FRET): 1370 nM; LXR beta actiivty at max dose [2, 3]: 72%; EC50 ([2]; read-out: LXR beta IP, potency (Inflection Point), compound-induced co-activator recruitment, TR-FRET): 169 nM
